Measured values as given in ChEMBL document CHEMBL1147598, “1-(2-Naphthyl)-1H-pyrazole-5-carboxylamides as potent factor Xa inhibitors. Part 3: Design, synthesis and SAR of orally bioavailable benzamidine-P4 inhibitors” (Bioorg Med Chem Lett, 2004).

By UniProt entry, the sequences of proteins in these tests, tags left out.
UniProt P00750, whole entry: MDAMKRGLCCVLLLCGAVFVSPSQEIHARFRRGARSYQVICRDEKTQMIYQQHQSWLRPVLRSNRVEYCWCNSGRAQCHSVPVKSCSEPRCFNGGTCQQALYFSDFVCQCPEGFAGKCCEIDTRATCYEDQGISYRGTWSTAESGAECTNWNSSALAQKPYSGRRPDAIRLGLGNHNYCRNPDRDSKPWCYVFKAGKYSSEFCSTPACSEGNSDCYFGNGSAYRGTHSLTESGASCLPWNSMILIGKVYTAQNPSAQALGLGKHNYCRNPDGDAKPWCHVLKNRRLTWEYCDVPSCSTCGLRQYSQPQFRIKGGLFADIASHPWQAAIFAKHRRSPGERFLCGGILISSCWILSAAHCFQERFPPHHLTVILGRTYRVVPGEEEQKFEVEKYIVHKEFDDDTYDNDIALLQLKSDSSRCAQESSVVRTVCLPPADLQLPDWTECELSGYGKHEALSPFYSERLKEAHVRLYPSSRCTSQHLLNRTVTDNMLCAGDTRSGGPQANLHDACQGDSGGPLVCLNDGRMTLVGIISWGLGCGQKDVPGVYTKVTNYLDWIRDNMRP

What was measured:
[1] = biological target: Tissue-type plasminogen activator (Homo sapiens, UniProt P00750); assay: Inhibitory activity of compound against tissue type plasminogen activator
[2] = biological target: Plasminogen (Homo sapiens) (UniProt P00747); assay: Inhibitory activity of compound against plasmin

IC50 [1]: > 10 µM
IC50 [2]: > 10 µM
SMILES: Cc1cc(C(=O)Nc2ccc(C3=NCCN3C)cc2F)n(-c2cc3ccccc3cc2F)n1
